A short description of the data set: In situ single-pass intestinal perfusion. In kind it is in vivo, Sprague–Dawley (SD) rats. The note with it: ileum, 90 min. As for the experimental part:
The rats were anesthetized and secured in a supine position on a surgical platform maintained at 37 °C. […] A 10 cm intestinal segment was isolated, and incisions were made at both ends. Silicone tubes were inserted into the incisions and ligated. […] Subsequently, the test sample was perfused through the intestinal loop. […] The collected samples were centrifuged, and the supernatant was mixed with methanol to precipitate proteins. After a second centrifugation, the resulting supernatant was analyzed by HPLC.

As for `COc1cc(/C=C/C(=O)CC(=O)/C=C/c2ccc(O)c(OC)c2)ccc1O` [CUR, Curcumin], the Remaining dosage was 58.61 ± 0.21%.

These data come from PMC12196007 (Molecules, 2025).
